Converted amounts (≈) assume the structure as drawn.
Experiments:
[1] = tested on: Microsporum gypseum MW766983; settings: 24 h
[2] = tested on: Trichophyton mentagrophytes MW766984; settings: 24 h

CC[C@H](C)[C@H](NC(=O)CNC(=O)[C@H](CO)NC(=O)[C@H](CC(C)C)NC(=O)[C@H](CC(C)C)NC(=O)CN)C(=O)N[C@@H](CC(C)C)C(=O)NCC(=O)N[C@@H](C)C(=O)NCC(=O)N[C@@H](CCCCN)C(=O)N[C@@H](CCCCN)C(=O)N[C@H](C(=O)N[C@H](C(=O)N[C@@H](Cc1ccccc1)C(=O)O)C(C)C)[C@@H](C)CC [Nigrocin-HLM] was tested, and the MIC [1] was 1 µg/mL (≈ 0.679 µM), the MBC/MFC [2] was 2 µg/mL (≈ 1.36 µM) and the MIC [2] was 2 µg/mL (≈ 1.36 µM).
